# Test results reported in patent publication US7109225B2, “Substituted oxazole derivatives” (Hofmann-la Roche Inc., priority 2002, dated 2006).
# Key:
# PPARα [1] = biological target: T1, PPARα (Homo sapiens, UniProt Q07869); assay: Luciferase transcriptional reporter gene assay, BHK21 cells transfected with pFA-PPARα-LBD; type: cell-based; parameters: PPARα (aa 167 to 469); expressed in transfected cells; host or cells: BHK21 (ATCC CCL10); settings: Gal4-PPARα-LBD
# T1 sequence (Q07869 167-468 limits assumed): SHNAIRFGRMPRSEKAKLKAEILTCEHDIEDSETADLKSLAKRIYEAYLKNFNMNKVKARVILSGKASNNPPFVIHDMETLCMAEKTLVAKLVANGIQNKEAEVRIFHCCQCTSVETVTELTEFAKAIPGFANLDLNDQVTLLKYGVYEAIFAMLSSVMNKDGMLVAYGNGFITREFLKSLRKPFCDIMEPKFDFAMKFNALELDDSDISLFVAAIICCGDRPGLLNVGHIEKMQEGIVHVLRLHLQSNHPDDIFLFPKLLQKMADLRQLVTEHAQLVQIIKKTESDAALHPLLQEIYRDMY
# Description: (§1) Full-length cDNA clones for human PPARα and mouse PPARγ were obtained by RT-PCR from human adipose and mouse liver cRNA, respectively, cloned into plasmid vectors and verified by DNA sequencing. […] To accomplish this, the portions of the cloned sequences encoding the LBDs were amplified from the full-length clones by PCR and then subcloned into the plasmid vectors. Final clones were verified by DNA sequence analysis.
# Luciferase Transcriptional Reporter Gene Assays
# Baby hamster kidney cells (BHK21 ATCC CCL10) were grown in DMEM medium containing 10% FBS at 37° C. in a 95%02:5%CO2 atmosphere. […] Following incubation of the cells for 24 hours with substances, 50 ul of the supernatant was recovered and analyzed for SEAP activity (Roche Molecular Biochemicals). […] Luminescence for both SEAP and luciferase was measured in a Packard TopCount. Luciferase activity was normalized to the SEAP control and transcriptional activation in the presence of a test substance was expressed as fold-activation over cells incubated in the absence of the substance. EC50 values were calculated using the XLfit program (ID Business Solutions Ltd. UK).
# PPARα [2] = biological target: T1, PPARα; assay: Radioligand binding assay, GST-PPARα-LBD fusion protein; parameters: PPARα (aa 167 to 469)
# Description: as §1
# Induction, expression, and purification of GST-LBD fusion proteins were performed in E. coli strain BL21 (pLysS) cells by standard methods (Ref: Current Protocols in Molecular Biology, Wiley Press, edited by Ausubel et al.).
# Radioligand Binding Assay
# PPARα receptor binding was assayed in TKE10 (10 mM Tris-HCl, pH 8, 50 mM KCl, 2 mM EDTA, 0.1 mg/ml fatty acid free BSA and 10 mM DTT). […]
# PPARγ receptor binding was assayed in TKE50 (50 mM Tris-HCl, pH 8, 50 mM KCl, 2 mM EDTA, 0.1 mg/ml fatty acid-free BSA and 10 mM DTT). […] All binding assays were performed in 96 well plates and the amount of bound ligand measured on a Packard TopCount using OptiPlates (Packard). Nonspecific binding was determined in the presence of 10^−4 M unlabelled compound. […]
smiles,measurement,setting,value
"CN(CCOc1ccc(CC2SC(=O)NC2=O)cc1)c1ccccn1 (centres unmarked) [Rosiglitazone, reference compound]",PPARα EC50,PPARα [1],inactive
same,PPARα IC50,PPARα [2],inactive
